Test results from patent publication US9567339B2, “Primary carboxamides as BTK inhibitors” (AbbVie Inc., priority 2013, dated 2017).

Protein sequences, listed by entry. Tags and fused reporters are not part of them. Residues count along the entry.
UniProt Q06187, 393-659: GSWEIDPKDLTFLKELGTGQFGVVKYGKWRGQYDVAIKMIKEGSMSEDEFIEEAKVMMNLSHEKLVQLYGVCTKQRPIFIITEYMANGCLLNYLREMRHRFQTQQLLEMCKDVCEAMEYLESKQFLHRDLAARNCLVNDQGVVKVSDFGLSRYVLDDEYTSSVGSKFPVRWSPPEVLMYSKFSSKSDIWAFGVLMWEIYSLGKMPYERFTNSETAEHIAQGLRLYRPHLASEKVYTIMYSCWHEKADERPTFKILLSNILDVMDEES

Target: BTK, recombinant human catalytic domain (aa 393-659) (Homo sapiens (Human), UniProt Q06187)
Experiment: In vitro BTK kinase activity measured by time-resolved fluorescence resonance energy transfer (trFRET)
Assay type: biochemical
Settings: 0.001 mM ATP, biotin-TYR1 peptide substrate

IC50: 100 to 1000 nM
Structure (SMILES): C=CC(=O)Nc1cccc(-c2ccc(C(N)=O)c3[nH]c(-c4ccccc4S(C)(=O)=O)cc23)c1C [A.1.34]
